Assay results published in ChEMBL document CHEMBL6134906, “Design, Synthesis, and Biological Evaluation of Selective STING Synergists That Enhance cGAMP-STING Pathway Activation without Inherent Agonist Activity” (J Med Chem, 2025).

Experiments:
[1] = target: T1, Stimulator of interferon genes protein (Mus musculus) (UniProt Q3TBT3); experiment: Agonist activity at mouse STING expressed in HEK293 cells assessed as SEAP production at 100 uM incubated for 48 hrs by QUANTI-Blue solution based spectrophotometric analysis; type: cell-based
T1 sequence (whole entry): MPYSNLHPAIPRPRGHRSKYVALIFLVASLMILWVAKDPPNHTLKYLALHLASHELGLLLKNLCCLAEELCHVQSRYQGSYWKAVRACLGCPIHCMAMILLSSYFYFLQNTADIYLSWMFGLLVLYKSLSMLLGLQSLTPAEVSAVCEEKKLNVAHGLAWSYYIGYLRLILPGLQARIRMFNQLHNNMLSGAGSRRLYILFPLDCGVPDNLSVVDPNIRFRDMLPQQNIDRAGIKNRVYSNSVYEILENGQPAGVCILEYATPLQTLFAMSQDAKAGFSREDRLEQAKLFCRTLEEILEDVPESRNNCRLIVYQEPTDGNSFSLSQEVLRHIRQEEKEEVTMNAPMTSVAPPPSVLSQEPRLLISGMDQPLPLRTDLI

HEK293 = experiment: Cytotoxicity against human HEK293 cells expressing human STING assessed as reduction in cell viability at 100 uM incubated for 48 hrs by CellTiter Glo luminescent cell viability assay; type: toxicity, cell-based; conditions: hek293, 48 h
[2] = target: T1, Stimulator of interferon genes protein (Mus musculus); experiment: Potentiation of cGAMP-induced mouse STING pathway activation expressed in HEK293 cells assessed as leftward shift in cGAMP agonist curve at 33 to 100 uM incubated for 48 hrs by QUANTI-Blue solution based spectrophotometric analysis; type: cell-based; conditions: filed as agonist, dose 33-100 µM
[3] = Toxicity in male C57BL/6 mouse model implanted with mouse B16-F10 cells assessed as effect on body weight at 20 mg/kg, ip administered on days 7, 10 and 13; type: organism-based; conditions: in vivo, 168 h, time 7 day
[4] = Toxicity in male C57BL/6 mouse model implanted with mouse B16-F10 cells assessed as effect on body weight at 20 mg/kg, ip co-administered with cGAMP on days 7, 10 and 13; type: organism-based; conditions: in vivo, 168 h, time 7 day
[5] = Toxicity in male C57BL/6 mouse model implanted with mouse B16-F10 cells assessed as effect on body weight at 20 mg/kg, ip co-administered with PD-L1 antibody on days 7, 10 and 13; type: organism-based; conditions: in vivo, 168 h, time 7 day
[6] = Cytotoxicity against human PBMC cells assessed as increase in IL-6 mRNA level at 5 to 100 uM incubated for 4 hrs by RT-qPCR analysis; type: toxicity, cell-based; conditions: dose 5-100 µM
[7] = Cytotoxicity against human PBMC cells assessed as increase in IL6 mRNA level at 25 uM incubated for 4 hrs in presence of cGAMP by RT-qPCR analysis; type: toxicity, cell-based
[8] = Toxicity in male C57BL/6 mouse assessed as effect on physical appearance at 20 to 100 mg/kg, ip administered for 7 days; type: organism-based; conditions: in vivo, 168 h, dose 20-100 mg/kg, time 7 day
[9] = Toxicity in male C57BL/6 mouse assessed as effect on behavior at 20 to 100 mg/kg, ip administered for 7 days; type: organism-based; conditions: in vivo, 168 h, dose 20-100 mg/kg, time 7 day
[10] = Toxicity in male C57BL/6 mouse assessed as signs of distress at 20 to 100 mg/kg, ip administered for 7 days; type: organism-based; conditions: in vivo, 168 h, dose 20-100 mg/kg, time 7 day
[11] = Toxicity in male C57BL/6 mouse assessed as effect on heart weight at 20 to 100 mg/kg, ip administered for 7 days; type: organism-based; conditions: in vivo, 168 h, dose 20-100 mg/kg, time 7 day
[12] = Toxicity in male C57BL/6 mouse assessed as effect on kidney weight at 20 to 100 mg/kg, ip administered for 7 days; type: organism-based; conditions: in vivo, 168 h, dose 20-100 mg/kg, time 7 day
[13] = Toxicity in male C57BL/6 mouse assessed as effect on liver weight at 20 to 100 mg/kg, ip administered for 7 days; type: organism-based; conditions: in vivo, 168 h, dose 20-100 mg/kg, time 7 day
[14] = Toxicity in male C57BL/6 mouse assessed as effect on lung weight at 20 to 100 mg/kg, ip administered for 7 days; type: organism-based; conditions: in vivo, 168 h, dose 20-100 mg/kg, time 7 day
[15] = Toxicity in male C57BL/6 mouse assessed as effect on heart architecture at 20 to 100 mg/kg, ip administered for 7 days by H and E staining based analysis; type: organism-based; conditions: in vivo, 168 h, dose 20-100 mg/kg, time 7 day
[16] = Toxicity in male C57BL/6 mouse assessed as alanine aminotransferase level at 100 mg/kg, ip administered for 7 days by biochemical analysis (reference value: 41.6 U/L); type: organism-based; conditions: in vivo, 168 h, time 7 day
[17] = Toxicity in male C57BL/6 mouse assessed as alkaline phosphatase level at 20 mg/kg, ip administered for 7 days by biochemical analysis (reference value: 268.4 U/L); type: organism-based; conditions: in vivo, 168 h, time 7 day
[18] = Toxicity in male C57BL/6 mouse assessed as uric acid level at 20 mg/kg, ip administered for 7 days by biochemical analysis (reference value: 0.13 mmol/L); type: organism-based; conditions: in vivo, 168 h, time 7 day
[19] = target: T1, Stimulator of interferon genes protein (Mus musculus); experiment: Potentiation of diABZI-induced mouse STING pathway activation expressed in HEK293 cells assessed as SEAP production at 50 uM incubated for 48 hrs by QUANTI-Blue solution based spectrophotometric analysis; type: cell-based
[20] = target: T1, Stimulator of interferon genes protein (Mus musculus); experiment: Potentiation of DMXAA-induced mouse STING pathway activation expressed in HEK293 cells assessed as SEAP production at 50 uM incubated for 48 hrs by QUANTI-Blue solution based spectrophotometric analysis; type: cell-based

## CCOC(=O)Cn1c2ccc(C)cc2c(=O)c2cc(OC)c(C)c(C)c21
[1]
  Activity: inactive
HEK293
  Activity: Non-toxic
[2]
  Activity: Active
[3]
  Activity: Non-toxic
[4]
  Activity: Non-toxic
[5]
  Activity: Non-toxic
[6]
  Activity: Non-toxic
[7]
  Activity: Toxic
[8]
  Activity: Non-toxic
[9]
  Activity: Non-toxic
[10]
  Activity: Non-toxic
[11]
  Activity: Non-toxic
[12]
  Activity: Non-toxic
[13]
  Activity: Non-toxic
[14]
  Activity: Non-toxic
[15]
  Activity: Non-toxic
[16]
  Activity: 52.2 U/L
[17]
  Activity: 260.8 U/L
[18]
  Activity: 0.13 mmol/L
[19]
  Activity: inactive
[20]
  Activity: inactive

Activity calls are given as the source filed them. No cut-off for these calls is given here.
